Laboratory results reported in patent US5468499A, “Liposomes containing the salt of phosphoramide mustard and related compounds” (Ohio State University, priority 1993, dated 1995).

System: murine leukemic L1210 cells
Test: Cytotoxicity of free and liposome-entrapped isophosphoramide mustard to L1210 cells
Settings: 72 hours

Compound: O=P(O)(NCCCl)NCCCl
- L1210 cell growth versus concentration (as free IPM concentration increased): the cell concentration decreased
- % of control (free IPM 5 μM): 0.6270 % of control
- average (of cell count readings) (free IPM 5 μM): 13475 and 12963 and 13696
- cell #/ml (free IPM 5 μM): 535133 #/ml
- % of control (free IPM 10 μM): 0.3391 % of control
- average (of cell count readings) (free IPM 10 μM): 7138 and 7061 and 7507
- cell #/ml (free IPM 10 μM): 289422 #/ml
- % of control (free IPM 25 μM): 0.2491 % of control
- average (of cell count readings) (free IPM 25 μM): 5078 and 5522 and 5345
- cell #/ml (free IPM 25 μM): 212609 #/ml
- % of control (free IPM 50 μM): 0.1750 % of control
- average (of cell count readings) (free IPM 50 μM): 3598 and 3705 and 3896
- cell #/ml (free IPM 50 μM): 149320 #/ml
- % of control (free IPM 100 μM): 0.1508 % of control
- average (of cell count readings) (free IPM 100 μM): 3001 and 3799 and 2854
- cell #/ml (free IPM 100 μM): 128720 #/ml

Several values for one entry are separate records, joined by “and”; a condition that tells them apart may be missing. Equal values may be shown once.
